This note sets out measurements from PubChem BioAssay AID2521 (Sanford-Burnham Center for Chemical Genomics, 2010).

Sequences of proteins named here, by UniProt entry; tags and fusion partners are left off.
UniProt P35414, whole entry: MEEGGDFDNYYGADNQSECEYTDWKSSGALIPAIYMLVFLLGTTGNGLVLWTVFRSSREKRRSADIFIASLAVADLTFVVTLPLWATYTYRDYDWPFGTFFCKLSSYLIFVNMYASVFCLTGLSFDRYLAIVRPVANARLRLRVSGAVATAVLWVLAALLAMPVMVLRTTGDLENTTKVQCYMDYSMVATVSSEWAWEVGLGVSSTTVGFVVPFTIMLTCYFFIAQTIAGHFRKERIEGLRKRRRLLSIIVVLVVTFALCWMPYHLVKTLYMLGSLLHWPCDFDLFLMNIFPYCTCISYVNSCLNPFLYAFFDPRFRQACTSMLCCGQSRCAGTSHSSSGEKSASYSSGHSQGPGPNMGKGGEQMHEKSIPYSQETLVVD

The list shows a part of the results, in another mix than the full data. Active and inactive are the calls of the source.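 How the source made its calls: active means inhibition above about 40% at 20 µM (limit read from the data); inactive means the rest.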

In this experiment the target is Apelin receptor (Homo sapiens) (UniProt P35414). In words: blockade of apelin-induced APJ beta-arrestin recruitment – CHO-K1 cells, beta-arrestin complementation, luminescence, primary screen (AID 2521).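 Further: cells challenged with 10 nM apelin-13 agonist together with compound; plate controls were apelin-13 plus DMSO wells for no effect and DMSO wells lacking apelin-13 for full effect.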 As to conditions: at 20 µM, hits give high values.
Usually inhibition stands for the share of the control response that was lost under treatment. For `CCC(=O)N(c1ccccc1)C1(COC)CCN(CCc2cccs2)CC1`, the inhibition was inactive: 18.7%.

For `CCC(=O)N(c1ccccc1)C1(COC)CCN(CCn2nnn(CC)c2=O)CC1`, the inhibition was inactive: 6.97%.
